Experimental data published in PMC9323733, “Efficacy of Vafidemstat in Experimental Autoimmune Encephalomyelitis Highlights the KDM1A/RCOR1/HDAC Epigenetic Axis in Multiple Sclerosis” (Pharmaceutics, 2022).

Protein sequences, listed by entry. Tags and fused reporters are not part of them.
UniProt P21453, whole entry: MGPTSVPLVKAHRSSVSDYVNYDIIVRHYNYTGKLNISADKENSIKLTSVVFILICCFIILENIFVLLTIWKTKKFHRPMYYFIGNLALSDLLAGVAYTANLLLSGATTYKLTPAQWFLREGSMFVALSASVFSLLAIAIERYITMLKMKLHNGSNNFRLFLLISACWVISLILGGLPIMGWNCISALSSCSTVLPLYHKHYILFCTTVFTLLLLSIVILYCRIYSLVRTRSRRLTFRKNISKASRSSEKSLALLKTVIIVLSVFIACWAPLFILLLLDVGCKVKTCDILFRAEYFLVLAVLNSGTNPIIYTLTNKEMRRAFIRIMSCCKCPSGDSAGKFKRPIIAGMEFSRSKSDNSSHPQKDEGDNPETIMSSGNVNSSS

Target: T1, human S1P1 receptor (Homo sapiens, UniProt P21453)
T1 construct: host or cells: CHO cells
Experiment: CellKey impedance assay in CHO cells, agonistic and antagonistic effect
Assay type: cell-based
Conditions: GPCR based impedance assays
Description: Cell on impedance modulation, using the CellKey (Cellular Dielectric Spectroscopy) detection method (CellKey 96, MDS Sciex, Concord, ON, Canada) at Eurofins Pharma Discovery Services (Celle-Lévescault, France). CHO cells were seeded onto a 96-well plate at 15.104 cells/well in HBSS buffer (Invitrogen), 20 mM HEPES (Invitrogen), 10% FCS (Invitrogen), and 0.1% BSA (Sigma), allowed to equilibrate for 60 min at 28 °C. DMSO solutions of compounds were diluted in HBSS and 0.1% BSA. Plates were placed onto the system, and measurements were made at a temperature of 28 °C. To measure the agonistic effect, compounds and controls in duplicate were added simultaneously to all of the wells using an integrated fluidics system. Impedance measurements were monitored for 10 min after ligand addition. S1P (Sigma) was used as reference agonist (EC50 = 0.001 µM). To measure the antagonistic effect, compounds and controls in duplicate were pre-incubated for 15 min before the addition of the reference agonist S1P at 0.01 µM (EC80). Impedance measurements were monitored for 10 min.
Evaluation of the agonistic (a) and antagonist (b) effect of the compounds on the human S1P1 receptor. […] Data are expressed as percentage of control (no compound) activity, n = 2. TSA was used as a control; (d) Cellular HDAC activity assay. […] SAHA was used as a control. Ponceau S staining was used as loading control. Veh: Vehicle. […]

For `CCCCCCCCc1ccc(CC[C@](N)(CO)COP(=O)(O)O)cc1` [FTY720-P, Fingolimod Phosphate], which “agonist and antagonist activity at S1P1 receptor” value is on record?
The value was “acts both as an agonist [46] and antagonist”.
